We go through two molecules from BindingDB's records for patent US10053463 (Janssen Pharmaceutica NV, 2018).

Amino acid sequences for entries named in this document (tags omitted). A change or cut given only in a name is not applied to a line headed by its entry.
UniProt Q99572: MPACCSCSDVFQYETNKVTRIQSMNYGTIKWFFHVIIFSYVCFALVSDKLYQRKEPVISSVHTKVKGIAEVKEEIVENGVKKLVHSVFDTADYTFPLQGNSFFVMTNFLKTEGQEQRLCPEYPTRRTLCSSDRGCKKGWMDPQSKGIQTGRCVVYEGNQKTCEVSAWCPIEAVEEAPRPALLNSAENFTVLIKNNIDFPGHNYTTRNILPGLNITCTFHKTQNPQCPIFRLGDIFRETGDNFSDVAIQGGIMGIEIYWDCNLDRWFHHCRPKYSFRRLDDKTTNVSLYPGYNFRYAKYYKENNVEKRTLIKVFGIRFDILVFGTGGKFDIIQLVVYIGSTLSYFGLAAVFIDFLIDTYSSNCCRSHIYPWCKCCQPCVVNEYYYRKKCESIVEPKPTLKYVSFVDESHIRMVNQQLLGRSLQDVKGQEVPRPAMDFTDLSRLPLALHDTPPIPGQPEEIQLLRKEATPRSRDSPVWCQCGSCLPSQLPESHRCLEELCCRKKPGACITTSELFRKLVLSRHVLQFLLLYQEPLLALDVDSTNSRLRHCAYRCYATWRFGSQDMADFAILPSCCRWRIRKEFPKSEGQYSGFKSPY

Experiment [1] has as its target T1, P2X purinoceptor 7 (Homo sapiens, UniProt Q99572). As to the kind of experiment: P2X7 Radioligand Binding. As for the experimental part: human or rat P2X7-1321N1 cells were collected and frozen @−80° C. On the day of the experiment, cell membrane preparations were made according to standard published methods. […] The compound can be prepared as described in the literature. […] The assay was terminated by filtration (GF/B filters pre-soaked with 0.3% PEI) and washed with washing buffer (Tris-HCl 50 mM). The IC50 generated in the binding assay was corrected for tracer concentration and affinity of the tracer to derive at the affinity (K) of the test compounds. […] Data are analyzed and graphed on Graphpad Prism 5.

In experiment [2] the target is T1, P2X purinoceptor 7. As to the kind of experiment: P2X7 FLIPR Assay. Particulars: pH 7.4. As for the experimental part: 1321N1 cells expressing the recombinant human or rat P2X7 channel was cultured in HyQ DME/(HyClone/Dulbecco's Modified Eagle Medium) high glucose supplemented with 10% Fetal Bovine Serum (FBS) and appropriate selection marker. Cells were seeded at a density of 25000 cells/well (96-well clear bottom black walled plates) in 100 μl volume/well. On the day of the experiment, cell plates were washed with assay buffer, containing (in mM): 130 NaCl, 2 KCl, 1 CaCl2, 1 MgCl2, 10 HEPES, 5 glucose; pH 7.40 and 300 mOs. After the wash, cells were loaded with the Calcium-4 dye (Molecular Device) and incubated in the dark for 60 minutes. Test compounds were prepared at 250× the test concentration in neat DMSO. Intermediate 96-well compound plates were prepared by transferring 1.2 μL of the compound into 300 μL of assay buffer. A further 3× dilution occurred when transferring 50 μL/well of the compound plate to 100 μL/well in the cell plate. Cells were incubated with test compounds and dye for 30 minutes. […] The fluorescence change was measured 180 seconds after adding the agonist. Peak fluorescence was plotted as a function of BzATP concentration using Origin 7 software.

For orientation: Ki means a dissociation constant, usually derived from enzyme kinetics or from competition with a known ligand. A higher Ki goes with a looser hold on the target. One may read the IC50 as the concentration that inhibits the measured activity by half. Lower therefore signals greater potency. In turn, `Cc1cccc(C(=O)NN)n1` [US10053463, 13] displayed a Ki on P2X purinoceptor 7 [1] of 1.4 nM. This molecule also gave an IC50 against P2X purinoceptor 7 [2] of 1 nM.

In turn, `NNC(=O)c1cccc(C(F)(F)F)n1` [US10053463, 16] had a Ki at P2X purinoceptor 7 [1] of 1.6 nM. In addition, on P2X purinoceptor 7 [2], half-maximal inhibition (IC50) required 0.7 nM.
